From patent US9441014B2, “Skin permeating and cell entering (SPACE) peptides and methods of use thereof” (The Regents of the University of California, priority 2010, dated 2016)

System: dermis
Conditions: phage extracted from dermis

ACKTGSHNQCG [AC-KTGSHNQ-CG]
occurrence of leading sequences in the fifth round of dermis screen: 30%

ACMGPSSMLCG [AC-MGPSSML-CG]
occurrence of leading sequences in the fifth round of dermis screen: 30%

ACTDPNQLQCG [AC-TDPNQLQ-CG]
occurrence of leading sequences in the fifth round of dermis screen: 20%
